Data on one compound can be found in patent publication US20050054770A1, “Helicomimetics and stabilized lxxll peptidomimetics” (priority 2001, published 2005).

The chains behind the UniProt entries cited, without tags or fusion partners.
UniProt Q92731, whole entry: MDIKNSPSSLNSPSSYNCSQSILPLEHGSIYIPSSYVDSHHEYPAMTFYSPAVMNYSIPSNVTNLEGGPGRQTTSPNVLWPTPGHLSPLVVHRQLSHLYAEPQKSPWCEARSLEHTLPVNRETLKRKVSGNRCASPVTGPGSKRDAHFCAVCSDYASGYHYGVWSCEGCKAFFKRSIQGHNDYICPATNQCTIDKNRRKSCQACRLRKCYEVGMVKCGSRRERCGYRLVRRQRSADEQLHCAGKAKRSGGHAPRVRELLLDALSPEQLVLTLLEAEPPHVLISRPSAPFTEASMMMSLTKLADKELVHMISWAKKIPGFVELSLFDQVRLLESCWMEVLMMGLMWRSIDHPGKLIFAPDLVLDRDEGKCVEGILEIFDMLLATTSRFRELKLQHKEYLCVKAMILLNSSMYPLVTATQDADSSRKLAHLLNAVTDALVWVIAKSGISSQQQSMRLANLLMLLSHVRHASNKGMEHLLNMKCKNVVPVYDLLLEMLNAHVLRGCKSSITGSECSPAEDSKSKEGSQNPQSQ

In the experiment the target is ER beta (Homo sapiens, UniProt Q92731). In words: competition binding assay against a model linear peptide sequence (estrogen receptor-coactivator interaction), ER beta. As to conditions: competition binding assay (Lilly Research Labs); read-out: Ki ER β. Here is the method:
The synthetic helicormimetic peptides designed as antagonists of the estrogen receptor-coactivator interactions were tested in a competition binding assay (Lilly Research Labs) against a model linear peptide sequence. Activities are reported in the Table below in Ki values, with two of the best analogs labeled as PERM-1 and PERM-2, or Peptidomimetic Estrogen Receptor Modulators.

As to `CC(C)C[C@H](NC(=O)[C@H](CC(C)C)NC(=O)[C@H](CCC(N)=O)NC(=O)[C@H](CCC(=O)O)NC(=O)[C@@H](N)CC(C)C)C(=O)O` [AML-I-22, H-Leu-Glu-Gln-Leu-Leu-OH], the Ki came out at 201 µM.
